# The list shows a part of the results, in another mix than the full data. Some results for these compounds are left out of this collection, so the calls shown say nothing about other tests. Calls of active or inactive are those of the source. The rule behind the calls is not given here.
# Sequences of proteins named here, by UniProt entry; tags and fusion partners are left off.
# UniProt O15492, whole entry, looked up: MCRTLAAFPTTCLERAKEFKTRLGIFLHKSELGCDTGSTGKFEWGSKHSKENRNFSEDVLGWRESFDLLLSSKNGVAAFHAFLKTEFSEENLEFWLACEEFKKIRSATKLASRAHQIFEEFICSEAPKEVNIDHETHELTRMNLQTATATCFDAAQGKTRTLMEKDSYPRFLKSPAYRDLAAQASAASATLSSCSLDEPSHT
# UniProt P09471, whole entry, looked up: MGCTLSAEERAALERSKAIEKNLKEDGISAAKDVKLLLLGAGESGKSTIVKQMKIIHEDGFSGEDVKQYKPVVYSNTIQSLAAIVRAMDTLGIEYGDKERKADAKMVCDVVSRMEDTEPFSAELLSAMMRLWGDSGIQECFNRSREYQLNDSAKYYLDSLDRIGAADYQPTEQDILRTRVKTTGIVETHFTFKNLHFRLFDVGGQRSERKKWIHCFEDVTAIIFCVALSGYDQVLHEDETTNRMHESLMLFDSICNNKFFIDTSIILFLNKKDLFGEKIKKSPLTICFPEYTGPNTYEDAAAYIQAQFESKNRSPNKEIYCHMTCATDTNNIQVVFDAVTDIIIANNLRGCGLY
# Target: Regulator of G-protein signaling 16 (Homo sapiens) + Guanine nucleotide-binding protein G(o) subunit alpha (Homo sapiens) (UniProt O15492+P09471)
# Assay: RGS16-Galphao interaction inhibitors and enhancers – biochemical, human proteins, multiplexed bead flow cytometry, primary screen (AID 1441);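 note: Galphao activated by GDP with aluminum fluoride before binding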
# Settings: bead-based flow cytometry RGS16-Galphao binding, fluorescence; at 10 µM; actives lie on both sides
row,SMILES,binding response (% of control)
1,O=C(OC1CN2CCC1CC2)C(CO)(c1ccccc1)c1ccccc1 (stereo unspecified),inactive: 102%
2,COc1ccc(Br)c(C(=O)NCC2(N3CCCCC3)CCCCC2)c1,inactive: 101%
3,CN(C)c1cccc(C(=O)NCC2(N(C)C)CCCCC2)c1,inactive: 102%
4,COc1cccc(C(=O)NCC2(N3CCCCC3)CCCCC2)c1,inactive: 97%
5,CN(C)C1CCCC1OC(=O)C(O)(c1ccccc1)c1ccccc1 (stereo unspecified),inactive: 104%
6,Cc1ccccc1C(=O)NCC1(N2CCCCC2)CCCCC1,inactive: 108%
7,C=CCN1CCN(CCOC(=O)C(O)(c2ccccc2)c2ccccc2)CC1,inactive: 100%
8,CCN1CCCC(OC(=O)C2(O)c3ccccc3C=Cc3ccccc32)C1 (stereo unspecified),inactive: 131%
9,O=C(NCC1(N2CCCCC2)CCCCC1)c1cc([N+](=O)[O-])ccc1Cl,inactive: 105%
10,CCN(CC)CC(C)C(C)OC(=O)C(O)(c1ccccc1)c1ccccc1 (stereo unspecified),inactive: 97.7%
11,CC(C)N1C(=O)CC2(CCN(CCOC(=O)C(O)(c3ccccc3)c3ccccc3)CC2)C1=O,inactive: 96.5%

# — PubChem BioAssay AID1441 (NMMLSC, 2008)
